Legend:
Assay in all cases: purified protein
COC(=O)CC(C)=O = details: amino acceptor, 10 mM 1-PEA as donor, pH 7, 45 °C
CCCCCCC(=O)C(=O)O = details: amino acceptor, 10 mM 1-PEA as donor, pH 7, 45 °C
C[C@H](N)c1ccccc1 = details: amino donor, pH 7, 45 °C
[1] = full reaction with 2.5 mM 2-OOA as acceptor
[2] = lowest concentration tested 0.1 mM
[3] = first half-reaction only, no keto acceptor, 5 mM PLP, 1 mg/ml enzyme

| Substance | Km (COC(=O)CC(C)=O) [µM] | kcat (COC(=O)CC(C)=O) [s⁻¹] | kcat/Km (COC(=O)CC(C)=O) [M⁻¹ s⁻¹] | Km (CCCCCCC(=O)C(=O)O) [µM] | kcat (CCCCCCC(=O)C(=O)O) [s⁻¹] | kcat/Km (CCCCCCC(=O)C(=O)O) [M⁻¹ s⁻¹] | Km (C[C@H](N)c1ccccc1; [1]) [µM] | kcat (C[C@H](N)c1ccccc1; [1]) [s⁻¹] | kcat/Km (C[C@H](N)c1ccccc1; [1]) [M⁻¹ s⁻¹] | Km (CCCCCCC(=O)C(=O)O; [2]) [µM] | kcat (CCCCCCC(=O)C(=O)O; [2]) [s⁻¹] | kcat/Km (CCCCCCC(=O)C(=O)O; [2]) [M⁻¹ s⁻¹] | Km (C[C@H](N)c1ccccc1; [3]) [µM] | kcat (C[C@H](N)c1ccccc1; [3]) [s⁻¹] | kcat/Km (C[C@H](N)c1ccccc1; [3]) [M⁻¹ s⁻¹] |
| --- | --- | --- | --- | --- | --- | --- | --- | --- | --- | --- | --- | --- | --- | --- | --- |
| CV_TA (Chromobacterium violaceum DSM30191 transaminase; ω-TA) (Chromobacterium violaceum ATCC 12472; Y168F) | 7100 ± 600 | 0.137 | 20 | 200 ± 70 | 0.358 | 2110 | 1100 ± 300 | 0.487 | 428 | – | – | – | – | – | – |
| CV_TA (Chromobacterium violaceum DSM30191 transaminase; ω-TA) (Chromobacterium violaceum ATCC 12472; W60C/Y168F) | – | – | – | – | – | – | – | – | – | 40 | 0.182 | 4540 | 4400 ± 100 | 0.0567 | 13.3 |
| CV_TA (Chromobacterium violaceum DSM30191 transaminase; ω-TA) (Chromobacterium violaceum ATCC 12472; W60C) | – | – | – | – | – | – | – | – | – | – | – | – | 1200 ± 100 | 0.06 | 43.3 |

Source: paper PMC6255834, “Single point mutations reveal amino acid residues important for Chromobacterium violaceum transaminase activity in the production of unnatural amino acids” (Scientific Reports, 2018)
